Values quoted from earlier work as cited in paper PMC11054638, “Transport of Non-Steroidal Anti-Inflammatory Drugs across an Oral Mucosa Epithelium In Vitro Model” (Pharmaceutics, 2024).

System: MRP4 (ABCC4)
Conditions: cited from earlier work

O=C(O)Cc1ccccc1Nc1c(Cl)cccc1Cl [diclofenac]
inhibitory effect on MRP4 function: weaker in comparison to ibuprofen
